{
  "sequences": {"note": "By UniProt entry, the sequences of proteins in these tests, tags left out. Where a name states a change or a piece, a line headed by the entry shows the natural chain unless it says otherwise.", "UniProt Q17339": "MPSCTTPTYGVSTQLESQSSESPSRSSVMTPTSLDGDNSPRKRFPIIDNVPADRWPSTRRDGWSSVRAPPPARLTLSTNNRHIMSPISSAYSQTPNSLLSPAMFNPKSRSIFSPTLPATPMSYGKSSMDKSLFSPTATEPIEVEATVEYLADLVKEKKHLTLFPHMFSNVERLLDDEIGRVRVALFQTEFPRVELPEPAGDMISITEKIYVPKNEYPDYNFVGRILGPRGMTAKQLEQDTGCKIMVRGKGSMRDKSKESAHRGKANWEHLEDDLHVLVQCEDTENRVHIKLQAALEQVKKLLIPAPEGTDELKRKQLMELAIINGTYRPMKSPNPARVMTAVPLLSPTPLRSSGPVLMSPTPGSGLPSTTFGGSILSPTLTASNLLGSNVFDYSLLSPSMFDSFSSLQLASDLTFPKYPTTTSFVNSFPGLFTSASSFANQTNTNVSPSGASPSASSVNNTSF"},
  "source": "PubChem BioAssay AID2280",
  "about": "(The Scripps Research Institute Molecular Screening Center, 2010)",
  "note": "The list shows a part of the results, in another mix than the full data. Calls of active or inactive are those of the source.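 Rule for the calls: active = percent inhibition above a per-plate cutoff, the plate mean of test compounds plus 3 SD (cut at about 30% in these data); inactive = the rest.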",
  "data": [
    {"molecular_target": "Female germline-specific tumor suppressor gld-1 (Caenorhabditis elegans) (UniProt Q17339)", "assay": "GLD-1/TGE RNA complex disruptors, primary screen, biochemical, fluorescence polarization (AID 2280);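 note: 0% = DMSO wells with GLD-1 and probe and 100% = wells lacking GLD-1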", "details": "purified GLD-1 + fluorescein TGE RNA, at 5.96 µM, active compounds read high", "values": [
      {"smiles": "COc1cc(C2NCCC3(OCCO3)C2(C)C)cc(OC)c1OC", "note": "(stereo unspecified)", "inhibition": "inactive: 1.59%"},
      {"smiles": "CCOP(=O)(Nc1cccc2ccccc12)OCC", "inhibition": "inactive: -2.9%"},
      {"smiles": "O=[As](O)(O)c1cccnc1", "inhibition": "inactive: -8.25%"},
      {"smiles": "COc1cc(C(=O)NCC2(N3CCOCC3)CCCCC2)cc(Cl)c1OC(C)C", "inhibition": "inactive: 5.62%"},
      {"smiles": "CS(=O)(=O)c1ccc(Cl)c(NC(=O)COC(=O)C(O)(c2ccccc2)c2ccccc2)c1", "inhibition": "inactive: 1.61%"},
      {"smiles": "O=C(OC1CN2CCC1CC2)c1ccc(Cl)cc1", "note": "(stereo unspecified)", "inhibition": "inactive: 5.22%"},
      {"smiles": "Cc1cccc(OCC(=O)OC2CN3CCC2CC3)c1", "note": "(stereo unspecified)", "inhibition": "inactive: -4.33%"},
      {"smiles": "O=[As](O)(c1cccc(O)c1)c1cccc(O)c1", "inhibition": "inactive: -0.79%"},
      {"smiles": "CC(=O)c1ccc(N2CC2c2ccncc2)cc1", "note": "(stereo unspecified)", "inhibition": "inactive: -2.96%"},
      {"smiles": "Cc1ccccc1CN(C)C(=O)COC(=O)C(O)(c1ccccc1)c1ccccc1", "inhibition": "inactive: -3.2%"},
      {"smiles": "C[C@H]1OP(=O)(Oc2ccccc2)C[C@@H]2O[C@@H]21", "note": "(stereo partly specified)", "inhibition": "inactive: 1.56%"},
      {"smiles": "C[C@@H]1C=CCP(=O)(Oc2ccccc2)O1", "note": "(stereo partly specified)", "inhibition": "inactive: -3.86%"},
      {"smiles": "CC(=O)Nc1ccc([As](=O)(O)O)c(O)c1", "inhibition": "inactive: 1.66%"},
      {"smiles": "CC(=O)Nc1ccc(Oc2c([N+](=O)[O-])cc([N+](=O)[O-])cc2[N+](=O)[O-])cc1", "inhibition": "inactive: 6.84%"},
      {"smiles": "O=P1(Nc2nc3ccc(Cl)cc3s2)COc2ccccc2O1", "note": "(stereo unspecified)", "inhibition": "inactive: 0.39%"},
      {"smiles": "CCOc1ccc(C2=NCC(CBr)S2)cc1", "note": "(stereo unspecified)", "inhibition": "inactive: 6.09%"},
      {"smiles": "CC(C)(C)C(=O)NC(Sc1ccccc1)C(Cl)(Cl)Cl", "note": "(stereo unspecified)", "inhibition": "inactive: 0.94%"},
      {"smiles": "COC(=O)c1cc2c(s1)N=C(c1ccccc1)N(C)P2(=O)N1CCOCC1", "note": "(stereo unspecified)", "inhibition": "inactive: 5.87%"},
      {"smiles": "Cc1ccc(OP(=O)(Nc2ccccn2)Oc2ccc(C)cc2)cc1", "inhibition": "inactive: 2%"},
      {"smiles": "CC(=O)NC(SC(=S)N(CC(C)C)CC(C)C)C(Cl)(Cl)Cl", "note": "(stereo unspecified)", "inhibition": "inactive: 4.79%"},
      {"smiles": "O=C(OC1CN2CCC1CC2)c1ccccc1", "note": "(stereo unspecified)", "inhibition": "inactive: 2.71%"},
      {"smiles": "CCC(=O)N1C2C3N(C(=O)CC)C1C1N(C(=O)CC)C(C(N1C(=O)CC)N3C(=O)CC)N2C(=O)CC", "inhibition": "inactive: 1.04%"},
      {"smiles": "CC(NC(=O)COC(=O)C(O)(c1ccccc1)c1ccccc1)c1ccccc1", "note": "(stereo unspecified)", "inhibition": "inactive: 8.31%"},
      {"smiles": "Cc1ccccc1OP(=O)(Nc1ccccn1)Oc1ccccc1C", "inhibition": "inactive: 4.75%"},
      {"smiles": "CN(C)C(=O)Oc1noc2ccccc12", "inhibition": "inactive: 8.91%"},
      {"smiles": "O=C(NC1CCS(=O)(=O)C1)NP(=S)(Oc1ccccc1)Oc1ccccc1", "note": "(stereo unspecified)", "inhibition": "inactive: 4.69%"},
      {"smiles": "CCNC(=S)/N=C(\\N)N[N+](=O)[O-]", "inhibition": "inactive: 6.44%"},
      {"smiles": "c1ccc(-c2nn[nH]n2)c(-c2nn[nH]n2)c1", "inhibition": "inactive: 2.11%"},
      {"smiles": "CCOC(=O)NC(Sc1ccccc1)C(Cl)(Cl)Cl", "note": "(stereo unspecified)", "inhibition": "inactive: 2.28%"},
      {"smiles": "Cc1ccc(NP(=O)(Oc2cccc(C)c2)Oc2cccc(C)c2)nc1", "inhibition": "inactive: -3.96%"},
      {"smiles": "O=[N+]([O-])c1ncn(CCn2cnc([N+](=O)[O-])n2)n1", "inhibition": "inactive: 6.81%"},
      {"smiles": "CC(=O)NC(SC(=S)N(C)C)C(Cl)(Cl)Cl", "note": "(stereo unspecified)", "inhibition": "inactive: 2.16%"},
      {"smiles": "O=[N+]([O-])c1ccc(O)c(/C=N/Nc2ccc([N+](=O)[O-])cc2[N+](=O)[O-])c1", "inhibition": "inactive: 5.56%"},
      {"smiles": "O=[As](O)(c1ccccc1)c1ccc(O)cc1", "inhibition": "inactive: 2.12%"},
      {"smiles": "C(Cc1nn[nH]n1)Cc1nn[nH]n1", "inhibition": "inactive: 6.56%"},
      {"smiles": "Nc1ccc([As](=O)(O)c2ccc([N+](=O)[O-])cc2)cc1", "inhibition": "inactive: 2.69%"},
      {"smiles": "O=C(OC1CN2CCC1CC2)c1cccc(Cl)c1", "note": "(stereo unspecified)", "inhibition": "inactive: 3.84%"},
      {"smiles": "CN(C)C1(CNC(=O)c2ccc(Cl)c(S(N)(=O)=O)c2)CCCCC1", "inhibition": "inactive: -2.1%"},
      {"smiles": "O=P(Nc1ccccn1)(c1ccc(Br)cc1)c1ccc(Br)cc1", "inhibition": "inactive: 7.24%"},
      {"smiles": "O=P(Nc1nc2ccccc2s1)(c1ccccc1)c1ccccc1", "inhibition": "inactive: 3.12%"},
      {"smiles": "C[C@H]1OP(=O)(Oc2ccccc2)[C@H](O)[C@H](O)[C@H]1N=[N+]=[N-]", "note": "(stereo partly specified)", "inhibition": "inactive: 0.05%"},
      {"smiles": "O=P(Nc1nccs1)(c1ccccc1)c1ccccc1", "inhibition": "inactive: -1.14%"},
      {"smiles": "CC(C)C(=O)NC(Sc1ccccc1)C(Cl)(Cl)Cl", "note": "(stereo unspecified)", "inhibition": "inactive: 5.42%"},
      {"smiles": "c1nnnn1CCn1cnnn1", "inhibition": "inactive: 2.27%"},
      {"smiles": "Nc1ccc([As](=O)(O)c2ccc(N)cc2)cc1", "inhibition": "inactive: 8.07%"},
      {"smiles": "C[N+]1=C2C=CC=CC=C2SC12C([N+](=O)[O-])=CC([N+](=O)[O-])=C[C-]2[N+](=O)[O-]", "note": "(stereo unspecified)", "inhibition": "inactive: 5.78%"},
      {"smiles": "CCN(/C(=N/P(=O)(N1CCOCC1)N1CCOCC1)N1CCOCC1)c1ccc(OC)cc1", "inhibition": "inactive: 7.59%"},
      {"smiles": "CC(C)=N/N=C(\\N)N[N+](=O)[O-]", "inhibition": "inactive: -2.81%"},
      {"smiles": "CN(C)C(=O)OCCc1n(C)cc[n+]1C", "inhibition": "inactive: -2.33%"},
      {"smiles": "CC1CCN(C(=O)Oc2c(Cl)cc(Cl)c3cccnc23)CC1", "inhibition": "inactive: 6.66%"},
      {"smiles": "COc1ccc(C2=NCC(CBr)S2)cc1", "note": "(stereo unspecified)", "inhibition": "inactive: 1.5%"},
      {"smiles": "CC(=O)N1C2C3N(C(C)=O)C1C1N(C(C)=O)C(C(N1C(C)=O)N3C(C)=O)N2C(C)=O", "inhibition": "inactive: 1.3%"},
      {"smiles": "O=[N+]([O-])c1cccc2n[nH]nc12", "inhibition": "inactive: 2.51%"},
      {"smiles": "Cc1ccc(NP(=O)(Oc2ccccc2)Oc2ccccc2)nc1", "inhibition": "inactive: 0.44%"},
      {"smiles": "O=[N+]([O-])c1cc([N+](=O)[O-])c(CCNc2ccccc2)c([N+](=O)[O-])c1", "inhibition": "inactive: 2.5%"},
      {"smiles": "CCc1nc2c(n1)c1c(non1O)c1c2no[n+]1[O-]", "inhibition": "inactive: 8.2%"},
      {"smiles": "CC(C)(C)C(=O)NC(Sc1ccncn1)C(Cl)(Cl)Cl", "note": "(stereo unspecified)", "inhibition": "inactive: -0.95%"},
      {"smiles": "O=[N+]([O-])c1ncn(CCn2ncnc2[N+](=O)[O-])n1", "inhibition": "inactive: -4.33%"},
      {"smiles": "O=[N+]([O-])c1cccc(NC2=NCC(CBr)S2)c1", "note": "(stereo unspecified)", "inhibition": "inactive: 7.36%"},
      {"smiles": "O=C(Nc1cc([As](=O)(O)O)ccc1O)c1ccccc1", "inhibition": "inactive: -12%"},
      {"smiles": "O=[N+]([O-])c1cc([N+](=O)[O-])c(CCN2CCOCC2)c([N+](=O)[O-])c1", "inhibition": "inactive: 5.8%"},
      {"smiles": "CCN(N=Nc1nonc1N)c1nonc1N", "inhibition": "inactive: 1.33%"},
      {"smiles": "CC(=O)Nc1ccc([As](=O)(O)O)cc1", "inhibition": "inactive: -3.07%"},
      {"smiles": "O=C(O)c1ccccc1[As](=O)(O)O", "inhibition": "inactive: 3.56%"},
      {"smiles": "O=P(Nc1nc2ccc(Cl)cc2s1)(c1ccccc1)c1ccccc1", "inhibition": "inactive: 1.08%"},
      {"smiles": "Cc1cc(SC(NC(=O)c2ccc(F)cc2)C(Cl)(Cl)Cl)ncn1", "note": "(stereo unspecified)", "inhibition": "inactive: -2.72%"},
      {"smiles": "CCOP(=O)(Nc1ccccc1)OCC", "inhibition": "inactive: 7.76%"},
      {"smiles": "CN(C(=O)Cc1ccc(Cl)c(Cl)c1)[C@H]1CCCC[C@@H]1N1CCCC1", "inhibition": "inactive: 1.98%"},
      {"smiles": "Cc1ccc(NP(=O)(Oc2ccccc2F)Oc2ccccc2F)nc1", "inhibition": "inactive: -3.48%"},
      {"smiles": "Nc1cc(N)c2nonc2c1[N+](=O)[O-]", "inhibition": "inactive: -5.18%"},
      {"smiles": "CC(C)CC(=O)NC(Sc1ccc(Cl)cc1)C(Cl)(Cl)Cl", "note": "(stereo unspecified)", "inhibition": "inactive: -2.18%"},
      {"smiles": "Oc1ccccc1CNc1ccccn1", "inhibition": "inactive: -3.63%"},
      {"smiles": "O=C(NC(Sc1ccncn1)C(Cl)(Cl)Cl)c1ccccc1", "note": "(stereo unspecified)", "inhibition": "inactive: 1.71%"},
      {"smiles": "Cc1c2non([O-])c-2c(C)[n+](=O)[n+]1[O-]", "inhibition": "inactive: -2.37%"},
      {"smiles": "NC(=O)c1cc([N+](=O)[O-])cc([N+](=O)[O-])c1N", "inhibition": "inactive: -7.57%"},
      {"smiles": "CN(C(=O)Cc1ccc(Cl)c(Cl)c1)[C@H]1CCCC[C@H]1N1CCCC1", "inhibition": "inactive: -0.08%"},
      {"smiles": "Cc1ccc(N/C(=N/P(=O)(N2CCOCC2)N2CCOCC2)N2CCOCC2)cc1", "inhibition": "inactive: 4.79%"},
      {"smiles": "COc1ccccc1OP(=O)(Nc1ccc(C)cn1)Oc1ccccc1OC", "inhibition": "inactive: 1.99%"},
      {"smiles": "Cc1ccc(OP(=O)(Nc2nccs2)Oc2ccc(C)cc2)cc1", "inhibition": "inactive: -0.46%"},
      {"smiles": "CN1CCCC(OC(=O)C(c2ccccc2)c2ccccc2)C1", "note": "(stereo unspecified)", "inhibition": "inactive: -6.76%"},
      {"smiles": "Clc1ccc(Cl)c(NC2=NCC(CBr)S2)c1", "note": "(stereo unspecified)", "inhibition": "inactive: 4.54%"}
    ]}
  ]
}
